One assay concerns non-injected oocytes. The assay is described as follows: Two-electrode voltage clamp, non-injected control oocytes.
The test system of another assay is mouse BASIC. The assay is described as follows: Two-electrode voltage clamp, oocytes expressing mouse BASIC. To be noted: 2 mM UDCA, 500 µM CPZ, 10 mM TNP, 100 µM Triton-X 100, 500 µM NL, 400 µM SDS; n = 8. On the technique in general: In two-electrode clamp one electrode senses voltage and the other passes current.
The target in the next assay is rat BASIC (Rattus norvegicus, UniProt Q9R0W5). The assay can be described thus: Two-electrode voltage clamp, Xenopus laevis oocytes expressing rat BASIC. To be noted: 10 mM TNP co-applied with 2 mM UDCA, n = 10.

Protein sequences, listed by entry. Tags and fused reporters are not part of them. Lines headed by an entry give the natural chain unless they say otherwise; changes in a name come on top.
UniProt Q9R0W5: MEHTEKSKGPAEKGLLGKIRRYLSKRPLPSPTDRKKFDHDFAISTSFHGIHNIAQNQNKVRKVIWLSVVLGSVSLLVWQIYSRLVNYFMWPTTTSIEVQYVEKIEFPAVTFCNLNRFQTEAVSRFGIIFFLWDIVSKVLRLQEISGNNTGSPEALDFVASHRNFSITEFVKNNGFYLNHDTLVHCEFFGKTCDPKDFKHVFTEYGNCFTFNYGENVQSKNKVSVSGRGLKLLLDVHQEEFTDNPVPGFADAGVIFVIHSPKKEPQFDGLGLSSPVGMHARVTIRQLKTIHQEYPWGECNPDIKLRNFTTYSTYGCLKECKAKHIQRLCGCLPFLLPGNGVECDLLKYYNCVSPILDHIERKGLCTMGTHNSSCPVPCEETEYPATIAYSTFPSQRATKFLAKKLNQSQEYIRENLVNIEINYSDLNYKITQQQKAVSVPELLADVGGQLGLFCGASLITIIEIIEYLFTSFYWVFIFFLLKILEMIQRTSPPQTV

For 2,3,6 Trinitrophenol, the “response of non-injected control oocytes” value in the assay on non-injected oocytes is “did not respond”. In addition, in the assay on mouse BASIC, the “activity of mouse BASIC, normalized to the amiloride-sensitive current” value was 0.6 fold. At rat BASIC, this substance came in with a current amplitude of 12.1±2.5 µA.
